AlphaSeq binding of Ab-95 light chain variants to a spike HR2 peptide

From the AlphaSeq antibody data of Engelhart et al. 2022 (doi:10.1038/s41597-022-01779-4), copy in the FLAb collection.

The target is the same throughout: PDVDLGDISGINAS, from the HR2 region of SARS-CoV-2 spike.

Ab-95 is the parent antibody, in scFv form: VH, then a 15-residue (Gly4Ser)3 linker, then VL. The heavy chain is unchanged in all variants.
VH: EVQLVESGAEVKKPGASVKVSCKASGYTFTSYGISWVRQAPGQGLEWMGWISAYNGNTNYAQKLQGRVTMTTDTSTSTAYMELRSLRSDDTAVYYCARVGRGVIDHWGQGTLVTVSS
VL: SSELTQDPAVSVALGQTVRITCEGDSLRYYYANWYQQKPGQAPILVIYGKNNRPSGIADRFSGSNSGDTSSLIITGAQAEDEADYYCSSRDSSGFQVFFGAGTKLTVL

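Variants in AAYL52 differ from the parent at up to three CDR positions; double and triple changes were sampled at random. Affinity was read by AlphaSeq, a pooled yeast mating assay with surface-displayed partners. After mating in shaken culture at 30 °C for 16 h, diploids were selected and their barcode pairs sequenced. Each replicate has its own calibration line, from reference interactions of the BCL2 family. There are three technical replicates.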

The whole VL of each variant is written out.
All variants listed here change R53 of the VL, counted from its first residue.
Each Kd is an estimate from the mating assay, the geometric mean of the replicates in which the pair was seen; lower is stronger.
A pair that was not seen in any replicate is written "nd"; this usually means weak binding, but a binder can also be missed.

For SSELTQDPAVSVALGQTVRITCEGDSLRYYYANWYQQKPGQAPILVIYPKNNVPSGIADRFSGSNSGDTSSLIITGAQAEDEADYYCSSRDSSGFMVFFGAGTKLTVL, the assay gave nd (0 of 3 replicates; controls 2 of 9). For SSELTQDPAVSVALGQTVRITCEGDSLRYYYANWYQQKPGQAPILVIYGKQNPPSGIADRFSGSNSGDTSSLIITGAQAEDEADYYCSSRDSSGFIVFFGAGTKLTVL, the assay gave 18 µM (2 of 3 replicates; controls 4 of 9). Variant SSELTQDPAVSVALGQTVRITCEGDSLRYYYANWYQQKPGQAPILVIYIKNNQPSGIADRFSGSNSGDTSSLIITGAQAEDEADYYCSSRDTSGFQVFFGAGTKLTVL showed 86 µM (2 of 3 replicates; controls 2 of 9). For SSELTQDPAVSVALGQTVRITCEGDSLRYYYANWYQQKPGQAPILVIYFKNNNPSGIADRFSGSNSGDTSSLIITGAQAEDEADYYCSSFDSSGFQVFFGAGTKLTVL, the assay gave 9.5 µM (2 of 3 replicates; controls 3 of 9). Variant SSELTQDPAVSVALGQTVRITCEGDSLAYYYAKWYQQKPGQAPILVIYGKNNIPSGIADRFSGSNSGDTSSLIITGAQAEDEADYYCSSRDSSGFQVFFGAGTKLTVL showed 25 µM (2 of 3 replicates; controls 6 of 9). For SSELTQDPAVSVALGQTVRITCEGDTLRYYYANWYQQKPGQAPILVIYGKNNEPSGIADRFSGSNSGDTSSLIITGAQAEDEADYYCSSRDSSGFQVFFGAGTKLTVL, the assay gave 13 µM (3 of 3 replicates; controls 3 of 9). For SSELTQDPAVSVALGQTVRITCEGDSLRVYYANWYQQKPGQAPILVIYGKNNVPSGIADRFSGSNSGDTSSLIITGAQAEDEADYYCSSRDSSGFQVQFGAGTKLTVL, the assay gave 870 nM (3 of 3 replicates; controls 2 of 9). For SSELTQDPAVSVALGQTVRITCEGDSLRYYYANWYQQKPGQAPILVIYGKNNDPSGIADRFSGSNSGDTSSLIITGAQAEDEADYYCSLRDVSGFQVFFGAGTKLTVL, the assay gave nd (0 of 3 replicates; controls 1 of 9).

Variant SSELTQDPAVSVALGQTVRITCEGDSLRYYYANWYQQKPGQAPILVIYKKNNKPSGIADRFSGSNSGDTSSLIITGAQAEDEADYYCSSRDSSVFQVFFGAGTKLTVL showed 4.1 µM (2 of 3 replicates; controls 1 of 9). For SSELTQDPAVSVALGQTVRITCERDSLRYYPANWYQQKPGQAPILVIYGKNNPPSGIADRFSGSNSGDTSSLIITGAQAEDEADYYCSSRDSSGFQVFFGAGTKLTVL, the assay gave nd (0 of 3 replicates; controls 0 of 9). For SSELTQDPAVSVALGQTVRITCEGGSLRYYYANWYQQKPGQAPILVIYGKNNAPSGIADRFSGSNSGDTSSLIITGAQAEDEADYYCSSRDSSGFQAFFGAGTKLTVL, the assay gave nd (0 of 3 replicates; controls 2 of 9). With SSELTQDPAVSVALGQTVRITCEGDCLRLYYANWYQQKPGQAPILVIYGKNNIPSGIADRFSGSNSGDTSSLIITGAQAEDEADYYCSSRDSSGFQVFFGAGTKLTVL the result was 1.5 µM (1 of 3 replicates; controls 4 of 9). With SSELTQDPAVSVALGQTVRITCEGDSLRYYYANWYQQKPGQAPILVIYGKNNAHSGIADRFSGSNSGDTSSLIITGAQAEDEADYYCSGRDSSGFQVFFGAGTKLTVL the result was 6.0 µM (2 of 3 replicates; controls 1 of 9). Variant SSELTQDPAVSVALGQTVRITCEVCSLRYYYANWYQQKPGQAPILVIYGKNNVPSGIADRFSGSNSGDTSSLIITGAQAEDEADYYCSSRDSSGFQVFFGAGTKLTVL showed nd (0 of 3 replicates; controls 2 of 9). Variant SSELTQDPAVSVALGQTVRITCEGDSLRYYYANWYQQKPGQAPILVIYGKNNIPSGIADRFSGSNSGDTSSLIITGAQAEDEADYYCSSRDSSQQQVFFGAGTKLTVL showed nd (0 of 3 replicates; controls 0 of 9).

As a blank, each scFv also met three strains without target: over library AAYL52, 28% of these pairings were detected, typically at 8.2 µM and seldom below 800 nM. For each scFv, signals with the empty controls are counted beside the result.
Parent in this assay: reference entry 200 nM, copy in this library 180 nM.